Data from US20260097130A1, “METHOD FOR TREATING NEURODEGENERATIVE DISEASES” (Suntec Medical, Inc., priority 2023, published 2026).

Assay: Brain delivery in mouse, IVIS live imaging
Type: in vivo, Athymic Nude-Foxn1nu female mice
Conditions: 10 mg/kg anti-HER2-Cy5.5 equivalent, tail vein i.v. bolus; live images at 8 hour
Procedure: Antibody drugs cannot penetrate BBB into brain parenchyma efficiently. Antibody drugs show similar structure, composed with Fab and Fc region, and molecular size (near 150 kDa).
Athymic Nude-Foxn1^nu female mice at the age of 6 weeks were used, the mice were divided into two groups. One group (n=3) received 10 mg/kg anti-HER2-Cy5.5 through tail vein i.v. bolus as control. The other group (n=3) received equivalent anti-HER2-Cy5.5 dose in MINC-anti-HER2-Cy5.5 via tail vein i.v. bolus.

## anti-HER2-Cy5.5: anti-HER2 antibody (trastuzumab) reacted with Cy5.5-NHS ester
  fluorescence signal in the brain region: not
